# Yeast mating assay 2: variants of the scFv Ab-95

Reference: Engelhart et al. 2022, doi:10.1038/s41597-022-01779-4. File: FLAb, binding data.

The target is the same throughout: PDVDLGDISGINAS, from the HR2 region of SARS-CoV-2 spike.

Parent: Ab-95, a human scFv built as VH, the linker GGGGSGGGGSGGGGS, VL. Only the CDRs of the light chain vary.
VH: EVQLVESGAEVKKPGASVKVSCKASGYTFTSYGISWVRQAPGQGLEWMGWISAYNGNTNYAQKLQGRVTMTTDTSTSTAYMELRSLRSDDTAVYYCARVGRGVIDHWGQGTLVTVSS
VL: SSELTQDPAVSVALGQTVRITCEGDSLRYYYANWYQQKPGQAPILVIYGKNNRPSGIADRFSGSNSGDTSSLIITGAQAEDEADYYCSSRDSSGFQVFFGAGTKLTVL

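The starting antibody came from a phage panning campaign against this peptide. Variants in AAYL52 differ from the parent at up to three CDR positions; double and triple changes were sampled at random. In AlphaSeq, yeast of one mating type display the scFv and yeast of the other type display the target. Pairs that bind mate more often; barcode pairs of the diploids are counted by sequencing. Read counts were normalised to the haploid input and turned into Kd by a linear fit to BCL2-family pairs of known affinity, for each replicate. Mating was done three times.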

Substitutions are numbered in sequence along the VL above, starting at 1 (not Kabat). Every variant below is changed at A32 of the VL (sequential numbering). The Kd shown is the geometric mean over detected replicates; a lower Kd is a better binder. "no signal" means that the variant was in the library but no mating with the target was seen in any replicate; the authors take this as a sign of poor binding, and no number exists. For reference, the parent read 200 nM as the reference entry and 180 nM as a member of this library. Empty control strains, which show no peptide, gave a signal in 28% of pairings with library AAYL52; the median was 8.2 µM and 95% of these signals were weaker than 800 nM. No background was subtracted.

The variant E23P L27C A32E showed 5.2 µM (1 of 3 replicates).
The variant E23L A32R V97F showed 16 µM (3 of 3 replicates).
The variant A32M D91H V97C showed 11 µM (2 of 3 replicates).
The variant Y31N A32K F98P showed 1.1 µM (2 of 3 replicates).
The variant A32E K50Q R90D showed no signal (0 of 3 replicates).
The variant A32E S55P S93I showed 3.6 µM (1 of 3 replicates).
The variant G24F A32V N33K showed no signal (0 of 3 replicates).
The variant A32G K50W S55G showed 17 µM (1 of 3 replicates).
The variant Y30I A32G R90V showed 960 nM (1 of 3 replicates).
The variant Y31D A32M S89W showed 140 nM (3 of 3 replicates).
The variant A32C F95E showed 560 nM (3 of 3 replicates).
The variant G24H S26H A32N showed 25 nM (3 of 3 replicates).
The variant A32I S92N F95V showed no signal (0 of 3 replicates).
The variant A32Q R53W S55T showed no signal (0 of 3 replicates).
The variant E23V Y29P A32G showed 4.1 µM (3 of 3 replicates).
The variant A32P V97P showed 150 nM (3 of 3 replicates).
The variant A32R N33I F95D showed 2.5 µM (1 of 3 replicates).
The variant A32R N51I V97H showed 60 µM (1 of 3 replicates).
The variant A32C N51S G94N showed no signal (0 of 3 replicates).
The variant S26Q A32D K50F showed 9.8 µM (2 of 3 replicates).
The variant D25H A32P F95Y showed 19 nM (3 of 3 replicates).
The variant A32F S55E R90C showed no signal (0 of 3 replicates).
The variant A32D N33T G94W showed no signal (0 of 3 replicates).
The variant E23N S26L A32D showed 4.2 µM (3 of 3 replicates).
The variant A32K S55Y S89N showed no signal (0 of 3 replicates).
The variant Y30A A32T S92I showed 18 nM (3 of 3 replicates).
The variant L27C A32I F98R showed 23 µM (2 of 3 replicates).
The variant A32K N33Q G94K showed 8.1 µM (2 of 3 replicates).
The variant Y30E A32H N52Q showed 240 nM (3 of 3 replicates).
The variant S26M R28K A32N showed 2.8 µM (3 of 3 replicates).
The variant Y30T A32N N52P showed 270 µM (2 of 3 replicates).
The variant Y30M A32T N33Y showed 5.2 µM (1 of 3 replicates).
The variant G24K A32Y K50W showed no signal (0 of 3 replicates).
The variant R28W A32M N33A showed 4.8 µM (2 of 3 replicates).
The variant A32R N33P Q96R showed 1.5 µM (1 of 3 replicates).
The variant S26I A32S N52S showed 4.8 µM (1 of 3 replicates).
The variant A32D S93K showed no signal (0 of 3 replicates).
The variant L27T A32Q F98W showed 1.1 µM (3 of 3 replicates).
The variant D25K A32D G49Y showed 460 nM (3 of 3 replicates).
The variant A32W R90A S93D showed no signal (0 of 3 replicates).

A selection of 5 entries from above:

{"changes": "A32W R90A S93D", "Kd": "no signal", "seen in": "0 of 3"}
{"changes": "E23N S26L A32D", "Kd": "4.2 µM", "seen in": "3 of 3"}
{"changes": "A32K S55Y S89N", "Kd": "no signal", "seen in": "0 of 3"}
{"changes": "G24H S26H A32N", "Kd": "25 nM", "seen in": "3 of 3"}
{"changes": "Y30A A32T S92I", "Kd": "18 nM", "seen in": "3 of 3"}